Yeast UUG start: alters start codon recognition fidelity in yeast; AID 602363; activity score, % at 18.7 µM; 350,000 tested, 0.13% active; S. cerevisiae UUG-firefly luciferase reporter, luminescence/redox ratio;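 active means replicate mean at a twofold rise or more, about +100% in these data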;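 further: firefly luciferase made from a UUG start codon reports start codon fidelity; reporter light over untreated wells divided by growth signal over untreated wells; some hits fall short of that in this replicate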
S100A4 inh HTS: inhibitors of human S100A4 binding to myosin IIA peptide | 360,000 tested, 0.14% active | AID 652163 | S100A4/TAMRA-MyoIIA peptide fluorescence polarization | P26447 | inhibition, % at 10.7 µM;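 active = mean inhibition of at least 70% across replicates, with every replicate also reaching that level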
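Test system: S100A4 monomer protein. Medium: HEPES buffer with Ca2+, pH 7.2. Reagent: fluorescent myosin IIA peptide, 5 nM. Compound dosing: single-point compound testing. Timing: 5 min between mix addition and reading. Benchmarks: DMSO neutral and TFP positive wells.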
SIRT5 inh: sirtuin-5 (human) deacylase inhibition. 330,000 tested, 1.1% active. Q9NXA8. inhibition, % at 15 µM. Purified SirT5, succinyl-peptide AMC, trypsin-coupled fluorescence. AID 652115; in the data active = inhibition above about 15%
ERp5 block: blocks human ERp5 reductase activity on insulin; 350,000 tested, 0.05% active; AID 651711; inhibition, % at 9.99 µM; ERp5 insulin aggregation, absorbance 650 nm, 90 min; Q15084;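 active = mean replicate inhibition above about 25%, with every replicate also reaching it, limit read from the data, passing the limit was not always enough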
FGF22 binding: binders of recombinant human FGF22 by thermal shift; Q9HCT0; SYPRO orange fluorescence; percent of sucrose octasulfate shift, DMSO zero; activity (Tm shift, normalised), % at 9.99 µM; 340,000 tested, 1.5% active; AID 651658;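 active = mean Tm shift, scaled 0 neutral to 100 positive control, at about 1.3% or above, every replicate too, limit read from the data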
PDI inh: inhibitors of human protein disulfide isomerase. P07237. PDI insulin aggregation turbidity, A650, 90 min. inhibition, % at 10 µM. 350,000 tested, 0.052% active. AID 588391;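 active = mean inhibition across replicates of 30% or more, whatever share of single replicates reach that level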
Of the large screens only hits and unclear results are named; the others gave an inactive call. Compounds with a hit are over-represented: about 2.2% of the library has one in this group of screens.

COc1ccc(NC(=O)N(C)C[C@@H]2Oc3cc(C#CCC(C)C)ccc3S(=O)(=O)N([C@H](C)CO)C[C@H]2C)cc1	SIRT5 inh 25 (no result: Yeast UUG start, PDI inh)
CC(C)CC#Cc1ccc2c(c1)O[C@@H](CN(C)C(=O)Nc1ccccc1)[C@@H](C)CN([C@H](C)CO)S2(=O)=O	S100A4 inh HTS 117 (no result: PDI inh)
COCC#Cc1ccc2c(c1)O[C@H](CN(C)C(=O)Nc1ccc(OC)cc1)[C@@H](C)CN([C@@H](C)CO)S2(=O)=O	none (no result: PDI inh)
COc1ccc(NC(=O)N(C)C[C@H]2Oc3cc(-c4ccc(C)cc4)ccc3S(=O)(=O)N([C@H](C)CO)C[C@H]2C)cc1	FGF22 binding 1.7 (no result: PDI inh)
C[C@@H]1CN([C@@H](C)CO)C(=O)c2cc(NC(=O)CCC(F)(F)F)ccc2O[C@@H](C)CCCCO[C@@H]1CN(C)CC1CCCCC1	none (no result: S100A4 inh HTS, SIRT5 inh, ERp5 block, PDI inh)
COc1ccc(S(=O)(=O)Nc2ccc3c(c2)CC(=O)N([C@H](C)CO)C[C@H](C)[C@@H](CN(C)S(=O)(=O)c2ccccc2)O3)cc1	none (no result: S100A4 inh HTS, SIRT5 inh, ERp5 block, PDI inh)
CCCC#Cc1ccc2c(c1)O[C@H](CN(C)C(=O)Nc1ccc(OC)cc1)[C@@H](C)CN([C@@H](C)CO)S2(=O)=O	SIRT5 inh 18 (no result: PDI inh)
COc1ccc(NC(=O)N(C)C[C@@H]2Oc3cc(C#CCC(C)C)ccc3S(=O)(=O)N([C@@H](C)CO)C[C@@H]2C)cc1	SIRT5 inh 29 (no result: Yeast UUG start, PDI inh)
COc1ccc(NC(=O)N(C)C[C@@H]2Oc3cc(C#CCN(C)C)ccc3S(=O)(=O)N([C@H](C)CO)C[C@@H]2C)cc1	none (no result: PDI inh)
COc1ccc(NC(=O)N(C)C[C@H]2Oc3cc(C#CCC(C)C)ccc3S(=O)(=O)N([C@@H](C)CO)C[C@@H]2C)cc1	SIRT5 inh 33 (no result: Yeast UUG start, PDI inh)
CCCC#Cc1ccc2c(c1)O[C@@H](CN(C)C(=O)Nc1ccc(OC)cc1)[C@H](C)CN([C@@H](C)CO)S2(=O)=O	none (no result: PDI inh)
OC[C@H]1[C@@H](c2ccccc2)C2(CN(CC3CC3)C2)N1Cc1nccs1	none (no result: Yeast UUG start, PDI inh)
COc1ccc(NC(=O)N(C)C[C@@H]2Oc3ccc(NC(=O)Cn4cnnn4)cc3C(=O)N([C@@H](C)CO)C[C@H]2C)cc1	none (no result: PDI inh)
COCC(=O)Nc1ccc2c(c1)C(=O)N(C)[C@H]1CC[C@H](CC(=O)Nc3ccccc3OC)O[C@@H]1CO2	none (no result: PDI inh)
CCCC(=O)N1CC2(CCN(C(=O)Nc3cccc(F)c3)CC2)c2c(n(C)c3cc(OC)ccc23)[C@@H]1CO	none (no result: Yeast UUG start, S100A4 inh HTS, SIRT5 inh, ERp5 block, PDI inh)
O=C1C=C(c2ccccc2Oc2ccccc2)C[C@@H](c2ccc(F)cc2)C1	FGF22 binding 43 (no result: SIRT5 inh)
C[C@@H]1CN([C@@H](C)CO)C(=O)Cc2cc(NS(=O)(=O)c3ccccc3)ccc2O[C@@H]1CN(C)Cc1ccc2c(c1)OCO2	none (no result: PDI inh)
CCOC(=O)C1=CCC2C(=O)N(C3CCCCC3)C(=O)C12 (stereo not drawn)	SIRT5 inh 18 (no result: PDI inh)
CC(=O)N1[C@@H]2Cn3c(ccc(-c4ccc(F)cc4)c3=O)[C@H]1[C@@H](C(=O)N(C)C)[C@@H]2CO	none (no result: Yeast UUG start, PDI inh)
COc1ccc(CCn2nnc3ccccc3c2=O)cc1OC	FGF22 binding 43 (no result: SIRT5 inh)
CCn1ncc(-c2cc(C(=O)O)no2)c1C	FGF22 binding 43 (no result: Yeast UUG start, PDI inh)
Cc1ccc(S(=O)(=O)N2C(=O)[C@@H]3Cc4ccccc4CN3C2=O)cc1	SIRT5 inh 17
C/C=C/c1ccc([C@H]2[C@@H](CN(C)C(=O)C3CC3)N(C(=O)CC)[C@H]2CO)cc1	none (no result: S100A4 inh HTS, SIRT5 inh, ERp5 block, FGF22 binding, PDI inh)
C/C=C/c1ccc([C@H]2[C@@H](CO)N(C(C)=O)[C@H]2CN(CC(C)C)C(C)=O)cc1	none (no result: S100A4 inh HTS, SIRT5 inh, ERp5 block, FGF22 binding, PDI inh)
C/C=C/c1ccc([C@@H]2[C@@H](CO)N(C(C)=O)[C@H]2CN(C(=O)COC)C(C)C)cc1	SIRT5 inh 34 (no result: PDI inh)
C/C=C/c1ccc([C@@H]2[C@@H](CN(C(=O)COC)C(C)C)N(C(C)=O)[C@H]2CO)cc1	SIRT5 inh 17 (no result: PDI inh)
C/C=C/c1ccc([C@H]2[C@@H](CO)N(C(=O)CC)[C@@H]2CN(C)C(=O)NC(C)C)cc1	SIRT5 inh 18 (no result: Yeast UUG start, FGF22 binding, PDI inh)
C[C@H]1CN([C@@H](C)CO)C(=O)c2cc(C#CCN(C)C)cnc2O[C@H]1CN(C)Cc1cccc(C(=O)O)c1	none (no result: SIRT5 inh, PDI inh)
COc1ccc(NC(=O)N[C@@H]2CC[C@H](CCNC(=O)Nc3cc(F)ccc3F)O[C@@H]2CO)cc1	none (no result: Yeast UUG start, PDI inh)
Cc1cc(C)c2nc3sc(=Cc4ccc(-c5ccccc5C(=O)O)o4)c(=O)n3c2c1	none
Cc1cc(/C=c2\sc3nc4ccccc4n3c2=O)c(C)n1-c1ccc(C(=O)O)cc1	none (no result: Yeast UUG start)
Cc1ccc2c(nc3s/c(=C\c4ccc(-c5ccccc5C(=O)O)o4)c(=O)n32)c1C	S100A4 inh HTS 85
O=C(O)c1ccc(-c2ccc(/C=c3/sc4nc5ccccc5n4c3=O)o2)cc1Cl	SIRT5 inh 24 (no result: Yeast UUG start)
CCn1c(=O)c(C(=O)CN2CCN(S(=O)(=O)c3ccc(C)cc3C)CC2)c(N)n(Cc2ccccc2)c1=O	SIRT5 inh 23
CO[C@@H]1CN(C)C(=O)c2cc(NC(C)=O)ccc2OC[C@@H](C)N(Cc2cccc(F)c2)C[C@H]1C	none (no result: FGF22 binding, PDI inh)
O=C(C[C@@H]1C=C[C@@H](NC(=O)Nc2ccccc2F)[C@@H](CO)O1)NCc1ccccc1	none (no result: Yeast UUG start, FGF22 binding, PDI inh)
CCN(CC)CCN(C(=O)Cn1nnc(-c2ccc(OC)c(OC)c2)n1)C(C(=O)NC1CCCC1)c1ccc(F)cc1 (stereo not drawn)	FGF22 binding 1.7
COc1ccc(-c2nnn(CC(=O)N(CCO)C(C(=O)NC3CCCC3)c3ccncc3)n2)cc1 (stereo not drawn)	FGF22 binding 43 (no result: Yeast UUG start)
N=c1c2c(ncn1Cc1ccco1)Oc1cc(O)ccc1C2c1ccccc1 (stereo not drawn)	none
COc1ccc(C2c3ccc(O)cc3Oc3ncn(CCCO)c(=N)c32)cc1 (stereo not drawn)	PDI inh 44
C[C@@H]1CN([C@H](C)CO)C(=O)Cc2cc(NC(=O)C3CC3)ccc2O[C@H]1CN(C)C(=O)Nc1cccc2ccccc12	none (no result: PDI inh)
CCOC(=O)N1CCC(NCCNC(=O)c2ccco2)CC1	FGF22 binding 44
COc1cc(/C=C/C(=O)O)ccc1OCc1ccc([N+](=O)[O-])cc1	FGF22 binding 43 (no result: Yeast UUG start)
CCCOc1ccc(/C=C/C(=O)O)cc1OC	none
C[C@@H]1CN([C@@H](C)CO)C(=O)c2cc(C3=CCCC3)cnc2O[C@H]1CN(C)Cc1cccc(F)c1	none (no result: PDI inh)
C[C@H]1CN([C@@H](C)CO)S(=O)(=O)c2ccc(Br)cc2O[C@@H]1CN(C)Cc1ccncc1	none (no result: PDI inh)
C[C@@H]1CN([C@H](C)CO)S(=O)(=O)c2ccc(-c3cncnc3)cc2O[C@H]1CN(C)Cc1ccncc1	SIRT5 inh 17 (no result: PDI inh)
C[C@H](CO)N1C[C@H](C)[C@H](CN(C)Cc2ccncc2)Oc2cc(Br)ccc2S1(=O)=O	SIRT5 inh 15 (no result: PDI inh)

High-throughput results deposited in PubChem BioAssay by Broad Institute.
